Measurements published in PubChem BioAssay AID624465 (National Center for Advancing Translational Sciences (NCATS), 2012).
This is a selection; strong and weak results do not stand in their true shares. Calls of active or inactive are those of the source. Rule as the data show it: active = activation above about 40%; inconclusive = between about 15% and that limit; inactive = weaker than that.

By UniProt entry, the sequences of proteins in these tests, tags left out.
UniProt P14416, whole entry: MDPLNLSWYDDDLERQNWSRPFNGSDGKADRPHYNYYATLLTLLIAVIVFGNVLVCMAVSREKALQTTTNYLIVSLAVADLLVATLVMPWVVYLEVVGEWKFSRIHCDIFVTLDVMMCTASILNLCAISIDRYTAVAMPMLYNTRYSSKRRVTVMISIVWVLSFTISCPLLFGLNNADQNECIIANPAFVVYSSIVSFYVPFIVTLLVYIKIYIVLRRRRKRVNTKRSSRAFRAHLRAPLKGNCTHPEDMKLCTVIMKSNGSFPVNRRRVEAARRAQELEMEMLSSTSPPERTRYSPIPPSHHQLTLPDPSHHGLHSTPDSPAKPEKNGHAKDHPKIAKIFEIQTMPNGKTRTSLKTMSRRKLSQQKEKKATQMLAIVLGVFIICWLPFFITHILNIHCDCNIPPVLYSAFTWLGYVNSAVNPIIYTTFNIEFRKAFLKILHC

What follows are compounds tested against D(2) dopamine receptor (Homo sapiens) (UniProt P14416) (assay: Beta-Arrestin HTS for Positive Allosteric Modulators of the Human D2 Dopamine Receptor: Agonists). Details: DiscoveRx PathHunter D2 beta-arrestin, luminescence, 90 min; stronger effect = higher value; 100% = 57 uM dopamine signal.
From the text: There is great interest in identifying small molecule ligands for G-protein coupled receptors (GPCRs) as nearly 50% of all FDA-approved drugs target these important receptor proteins. […] Amongst the dopamine receptors (DARs), the D2 is arguably one of the most validated drug targets in neurology and psychiatry. For instance, all receptor-based antiparkinsonian drugs primarily work via stimulating the D2 DAR, whereas all FDA-approved antipsychotic agents are antagonists of this receptor. The D2 DAR is also therapeutically targeted in other disorders such as restless legs syndrome, tardive dyskinesia, Tourette's syndrome, and hyperprolactinemia.
To this end, a miniaturized qHTS screen was developed to be screened against the Molecular Libraries Small Molecule Repository (MLSMR). This assay seeks to identify agonists against the D2 DAR.
NIH Molecular Libraries Probe Production Network [MLPCN]
NIH Chemical Genomics Center [NCGC]
PI Name: David Sibley, National Institutes of Neurological Disorders and Stroke
DiscoveRx D2 cells were thawed from frozen stock and seeded at 2,100 cells/ 3 uL/well media (DiscoveRx Plating Reagent 2) with MultiDrop Combi dispenser (Thermo Scientific, Logan, UT) onto white tissue culture treated 1536-well Aurora plates (Brooks Automation, Chelmsford, MA) and allowed to attach overnight at 37 deg C, 5% CO2. Next, 23 nL/well of compound solutions in DMSO were added with a pintool transfer (Kalypsis, San Diego, CA). As the positive control, 1 uL/well dopamine (EC100, 57 uM final concentration) diluted in buffer (HBSS + 10 mM HEPES + SMB + 0.1% Tween-20) was dispensed to 1 column of each plate. The rest of the plate was dispensed with buffer only, 1 uL/well as well. The cells were stimulated by compounds or dopamine control for 90 minutes at 37 deg C, 5% CO2, after which 1.5 ul/well of DiscoveRx detection reagent was added with BioRAPTR FRD dispenser. The detection reagent was prepared by mixing of Galacton Star Substrate, Emerald II solution and PathHunter buffer (supplied by the assay kit) together at 1:5:19 proportion accordingly just prior to dispensing. The plates were incubated at ambient temperature for 1 hour and then the luminescent signal was read on ViewLux plate reader (PerkinElmer, Waltham, MA).

| Compound | activation |
| --- | --- |
| CN(C)c1cccc(C(=O)NCC2(N3CCCCC3)CCCCC2)c1 | inactive: -2.17% |
| COc1ccc(CN(CCCl)CCCl)cc1Cl | inactive: -1.56% |
| CCC(c1nnnn1C(C)(C)C)N1CCC(n2c(=O)[nH]c3ccccc32)CC1 (stereo not given) | inactive: -2.88% |
| O=C(NCC1(N2CCOCC2)CCCCC1)c1cc(F)c(F)cc1Cl | inactive: -1.95% |
| COc1cc(OC)c(C(=O)NCC2(N(C)C)CCCCC2)cc1OC | inactive: -4.27% |
| CCCCn1nnnc1C(c1ccnc2ccccc12)N1CCC(n2c(=O)[nH]c3ccccc32)CC1 (stereo not given) | inactive: 4.67% |
| O=C(NCC1(N2CCCCC2)CCCCC1)c1cccc(C(F)(F)F)c1 | inactive: -5.01% |
| COc1cc(C(=O)NCC2(N3CCCCC3)CCCCC2)ccc1OC(F)F | inactive: -2.48% |
| O=C(NCC1(N2CCOCC2)CCCCC1)c1cc(=O)[nH]c2ccccc12 | inactive: -1.34% |
| CCCCn1nnnc1C(c1cccc2ccccc12)N1CCC(n2c(=O)[nH]c3ccccc32)CC1 (stereo not given) | inactive: 3.47% |
| CN1CCN(CCOC(=O)C(O)(c2ccccc2)c2ccccc2)CC1 | inactive: 0.507% |
| COc1ccc(NC2CCN(C(=O)OC(C)(C)C)CC2)cc1 | inactive: -2.69% |
| CC(C)c1ccc(C(=O)NCC2(N3CCOCC3)CCCCC2)cc1 | inactive: -2.97% |
| O=C(NCC1(N2CCCCC2)CCCCC1)c1ccc(OC(F)F)cc1 | inactive: -1.17% |
| CC(C)(C)n1nnnc1C(c1ccccc1OC(F)(F)F)N1CCC(n2c(=O)[nH]c3ccccc32)CC1 (stereo not given) | inactive: 5.58% |
| N#CC1(Nc2ccccc2)CCN(CCc2ccccc2)CC1 | inactive: -1.73% |
| O=c1[nH]c2ccccc2n1C1CCN(C(c2ccccc2OC(F)(F)F)c2nnnn2C2CCCC2)CC1 (stereo not given) | inactive: -1.09% |
| CCN1CCC(Nc2ccc(Cl)cc2)CC1 | inactive: -3.87% |
| CSc1ccc(C(=O)NCC2(N3CCOCC3)CCCCC2)cc1 | inactive: -2.08% |
| O=C(NCC1(N2CCCCC2)CCCCC1)c1cccc([N+](=O)[O-])c1 | inactive: 2.64% |
